## Ab-14 heavy chain CDR variants: yeast mating affinities

The measurements come from Engelhart et al. 2022 (doi:10.1038/s41597-022-01779-4) through the FLAb antibody collection.

Binding partner: SARS-CoV-2 spike HR2 peptide, sequence PDVDLGDISGINAS.

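In library AAYL49, one, two or three CDR residues were substituted; doubles and triples were drawn at random. Affinity was read by AlphaSeq, a pooled yeast mating assay with surface-displayed partners. Mating (16 h, 30 °C) was followed by selection of diploids and sequencing of their barcodes. A regression on co-assayed BCL2-family reference pairs converts the normalised counts of each replicate to an apparent Kd. There are three technical replicates.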

Parent scFv Ab-14: VH joined to VL by a (GGGGS)3 linker. Changes lie in the heavy chain CDRs alone.
VH: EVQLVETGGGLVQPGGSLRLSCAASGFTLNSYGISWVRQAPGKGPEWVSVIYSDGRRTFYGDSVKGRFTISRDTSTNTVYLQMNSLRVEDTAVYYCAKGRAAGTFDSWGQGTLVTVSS
VL: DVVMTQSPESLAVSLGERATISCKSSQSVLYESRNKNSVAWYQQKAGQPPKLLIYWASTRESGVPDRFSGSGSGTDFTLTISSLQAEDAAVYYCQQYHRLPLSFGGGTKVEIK

Changes read parent residue, position, new residue, counted from the first residue of the VH shown.
Values are log10 of the apparent Kd in nM; lower means stronger binding.
The mean shown is taken over the replicates in which the pair was detected.
"n.d." marks a missing value. The strain was present, yet no cells mated with the target were sequenced in that replicate, which points to weak or no binding.
For reference, the parent read 0.65 as the reference entry and 4.11 (one replicate of three) as a member of this library.
Empty control strains, which show no peptide, gave a signal in 15% of pairings with library AAYL49; the median was 4.06 and 95% of these signals were weaker than 2.83. No background was subtracted. Also given: how often the same scFv was detected with the empty control strains, with their mean in brackets.

{"changes": "S31W/I51E/R100E", "log10 Kd, replicates": "4.80 / 4.97 / 5.85", "mean log10 Kd (nM)": "5.21", "empty controls": "3/9 (4.15)"}
{"changes": "F27P/N30H/Y52H", "log10 Kd, replicates": "6.49 / n.d. / 4.22", "mean log10 Kd (nM)": "5.35", "empty controls": "5/9 (3.82)"}
{"changes": "R56I/F59R/D106I", "log10 Kd, replicates": "1.31 / 1.47 / 1.77", "mean log10 Kd (nM)": "1.51", "empty controls": "1/9 (4.87)"}
{"changes": "L29D/T58E/G61K", "log10 Kd, replicates": "n.d. / n.d. / n.d.", "mean log10 Kd (nM)": "n.d.", "empty controls": "1/9 (3.88)"}
{"changes": "F59T/D62R/G103E", "log10 Kd, replicates": "n.d. / n.d. / n.d.", "mean log10 Kd (nM)": "n.d.", "empty controls": "0/9"}
{"changes": "Y52W/F105D", "log10 Kd, replicates": "n.d. / 3.91 / n.d.", "mean log10 Kd (nM)": "3.91", "empty controls": "4/9 (4.71)"}
{"changes": "T28I/A102H/F105H", "log10 Kd, replicates": "n.d. / n.d. / n.d.", "mean log10 Kd (nM)": "n.d.", "empty controls": "0/9"}
{"changes": "G33I/R56S/V64K", "log10 Kd, replicates": "n.d. / n.d. / n.d.", "mean log10 Kd (nM)": "n.d.", "empty controls": "1/9 (2.90)"}
{"changes": "V50I/Y60T/V64I", "log10 Kd, replicates": "n.d. / 3.09 / n.d.", "mean log10 Kd (nM)": "3.09", "empty controls": "1/9 (3.49)"}
{"changes": "L29Q/I34H/G103H", "log10 Kd, replicates": "n.d. / n.d. / n.d.", "mean log10 Kd (nM)": "n.d.", "empty controls": "0/9"}
{"changes": "S107F", "log10 Kd, replicates": "n.d. / 4.65 / n.d.", "mean log10 Kd (nM)": "4.65", "empty controls": "5/9 (3.80)"}
{"changes": "T58G/G61L/D106M", "log10 Kd, replicates": "n.d. / n.d. / n.d.", "mean log10 Kd (nM)": "n.d.", "empty controls": "0/9"}
{"changes": "G26I/S107G", "log10 Kd, replicates": "n.d. / n.d. / n.d.", "mean log10 Kd (nM)": "n.d.", "empty controls": "2/9 (4.28)"}
{"changes": "R56Q/Y60A/T104L", "log10 Kd, replicates": "n.d. / 2.00 / n.d.", "mean log10 Kd (nM)": "2.00", "empty controls": "1/9 (4.04)"}
{"changes": "G26W/V50I/S107K", "log10 Kd, replicates": "n.d. / n.d. / n.d.", "mean log10 Kd (nM)": "n.d.", "empty controls": "2/9 (3.14)"}
{"changes": "Y52D/F59H/G99M", "log10 Kd, replicates": "n.d. / 3.55 / 4.56", "mean log10 Kd (nM)": "4.06", "empty controls": "4/9 (4.62)"}
{"changes": "F27Q/S63I/R100F", "log10 Kd, replicates": "n.d. / 4.56 / n.d.", "mean log10 Kd (nM)": "4.56", "empty controls": "0/9"}
{"changes": "T28S/G33L/S35W", "log10 Kd, replicates": "n.d. / 3.26 / n.d.", "mean log10 Kd (nM)": "3.26", "empty controls": "2/9 (4.65)"}
{"changes": "N30E/V64C/T104D", "log10 Kd, replicates": "2.64 / 2.93 / 2.62", "mean log10 Kd (nM)": "2.73", "empty controls": "5/9 (4.09)"}
{"changes": "D54M/V64A/F105V", "log10 Kd, replicates": "4.85 / n.d. / n.d.", "mean log10 Kd (nM)": "4.85", "empty controls": "1/9 (3.22)"}
{"changes": "F27M/N30F/F105T", "log10 Kd, replicates": "n.d. / n.d. / n.d.", "mean log10 Kd (nM)": "n.d.", "empty controls": "0/9"}
{"changes": "N30E/Y32S/Y60A", "log10 Kd, replicates": "3.97 / n.d. / n.d.", "mean log10 Kd (nM)": "3.97", "empty controls": "2/9 (3.31)"}
{"changes": "L29I/N30D/A101E", "log10 Kd, replicates": "0.73 / 0.44 / 0.66", "mean log10 Kd (nM)": "0.61", "empty controls": "0/9"}
{"changes": "F27K/S31N/I51S", "log10 Kd, replicates": "n.d. / n.d. / 3.25", "mean log10 Kd (nM)": "3.25", "empty controls": "3/9 (3.57)"}

The first 4 entries again:

changes,"log10 Kd, replicates",mean log10 Kd (nM),empty controls
S31W/I51E/R100E,4.80 / 4.97 / 5.85,5.21,3/9 (4.15)
F27P/N30H/Y52H,6.49 / n.d. / 4.22,5.35,5/9 (3.82)
R56I/F59R/D106I,1.31 / 1.47 / 1.77,1.51,1/9 (4.87)
L29D/T58E/G61K,n.d. / n.d. / n.d.,n.d.,1/9 (3.88)